Amino acid sequences for entries named in this document (tags omitted).
UniProt P0DMS8, whole entry: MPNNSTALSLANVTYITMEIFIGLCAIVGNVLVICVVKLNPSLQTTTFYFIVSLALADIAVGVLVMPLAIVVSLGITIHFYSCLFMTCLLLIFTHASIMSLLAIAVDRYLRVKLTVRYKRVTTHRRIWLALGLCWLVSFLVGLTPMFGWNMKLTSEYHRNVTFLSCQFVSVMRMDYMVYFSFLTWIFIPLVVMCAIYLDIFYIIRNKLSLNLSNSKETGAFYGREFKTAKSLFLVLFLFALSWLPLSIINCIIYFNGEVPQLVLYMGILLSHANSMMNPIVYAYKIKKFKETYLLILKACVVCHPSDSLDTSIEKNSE

In ChEMBL document CHEMBL1131608, “Structure-activity relationships and molecular modeling of 3, 5-diacyl-2,4-dialkylpyridine derivatives as selective A3 adenosine receptor antagonists” (J Med Chem, 1998):

Target: Adenosine receptor A3 (Homo sapiens, UniProt P0DMS8)
Assay: Displacement of [125I]AB-MECA from adenosine A3 receptor from HEK293 cell membranes
Format: cell-based

Ki: 1.5 nM
Compound: CNC(=O)[C@H]1O[C@@H](n2cnc3c(NCc4ccc(N)c(I)c4)ncnc32)[C@H](O)[C@@H]1O
